Test results as given in US20040132095A1, “Method of selecting antimicrobial agent and method of using the same” (priority 2001, published 2004).

Key:
[1] = tested on: red brown colored mold slime causing defects; assay: Sterilization/preservation treatment of filtrate line, paper machine Z (Example 10); conditions: intermittent introduction into the filtrate line after washing with NaOH
[2] = tested on: Chaetomium elatum; assay: Data base search for antimicrobial agent, filamentous fungus (Example 6); assay type: cell-based; conditions: judged by (minimum effective concentration)×(price) under the environmental condition of the machine
[3] = tested on: fungi isolated from the slime in the filtrate line (red brown mold, genus Sarcinomyces); assay: Effectiveness for fungi isolated from the slime in the filtrate line (Example 10)

## O=C1SSC(Cl)C1Cl (stereo not drawn)
[1]
  occurrence of defect on paper: complete exclusion
[2]
  effectiveness on the filamentous fungus: effectiveness
[3]
  effectiveness for the fungi isolated from the slime in the filtrate line: at the most effective
